Assay outcomes: PubChem, Broad Institute
Yeast UUG start: alters start codon recognition fidelity in yeast. S. cerevisiae UUG-firefly luciferase reporter, luminescence/redox ratio. AID 602363. activity score, % at 18.7 µM. hit rate 0.13% among 350,000;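 active = replicate mean at a twofold rise or more, about +100% in these data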;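 note: firefly luciferase made from a UUG start codon reports start codon fidelity; reporter light over untreated wells divided by growth signal over untreated wells; some hits fall short of that in this replicate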
SR-BI DiI inh: inhibitors of SR-BI mediated HDL lipid uptake, primary screen, ldlA[mSR-BI] cells, fluorescence, single point; Scavenger receptor class B member 1 (Mus musculus), Q61009; ldlA[mSR-BI] CHO cells, DiI-HDL uptake fluorescence, 3 h; inhibition, % at 12.5 µM; 0.96% of 320,000 active; AID 488896, 2010;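 active = mean replicate inhibition of at least 70% and a set share of replicates each scoring 70 or more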;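 also: 0% = median of neutral control wells and 100% = median of positive control wells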
GSIS activator: GLuc luminescence reporter in INS-1E cells, primary screen for activators of glucose-dependent secretion of insulin | INS-1E GLuc reporter insulin secretion, 2-3 h | activation, % at 16.6 µM | 0.61% of 370,000 active;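 active = lowest replicate activation of at least 40%, so every replicate reaches that level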;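 also: 0% = median of neutral control wells and 100% = median of IBMX positive control wells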
SR-BI uptake up: activators of SR-BI mediated DiI-HDL uptake, primary screen, ldlA[mSR-BI] CHO cells, DiI fluorescence | 0.096% of 320,000 active | activation, % at 12.5 µM | 3 h; 100 = double the neutral-control signal;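 active = mean replicate activation of at least 60% and every replicate at or above 60%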;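 also: 0% = median plate neutral-control signal and 100% = twice that signal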
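Test system: SR-BI-overexpressing, LDLR-lacking CHO cells; Also added: labelled HDL, 10 µg/mL; Measured by: bottom-read cell fluorescence after medium removal, ex 550/em 595 nm; Timing: 3 h uptake period with compound, 37 °C; Buffer or medium: F12, 0.5% BSA, 25 mM HEPES; Doses: single compound concentration, delivered by pin transfer.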
* marks the source's active call; other numbers are inactive results; . = no result. A selection: hits, their analogues and other compounds. The true share with any hit is near 1.3%.

Letters: A = Yeast UUG start; B = SR-BI DiI inh; C = GSIS activator; D = SR-BI uptake up
SMILES: N#Cc1cccnc1Nc1cccc(Cl)c1
  A = -5	B = -11	C = 59*	D = 11
SMILES: COc1cc(C)c(NC(=O)c2cc(C3CC3)nc3c2cnn3C(C)C)cc1OC
  A = 10	B = 34	C = .	D = -34
SMILES: COc1ccc(NC(=O)c2cc(C3CC3)nc3c2cnn3C(C)C)cc1OC
  A = -9	B = 74*	C = 15	D = -74
SMILES: C[C@H]1CN([C@@H](C)CO)C(=O)c2cc(NC(=O)Nc3ccccc3)ccc2O[C@H]1CN(C)C(=O)Nc1ccc2c(c1)OCO2
  A = .	B = .	C = -2	D = .
SMILES: CNc1nc(Nc2ccccc2)nc(OCC(F)(F)F)n1
  A = 1	B = 16	C = 76*	D = 2
SMILES: CCN(C(=O)CSc1nnc(-c2ccccc2)n1C)C1CCS(=O)(=O)C1 (stereo unspecified)
  A = -16	B = -41	C = 8	D = 41
SMILES: C=CCn1c(SCC(=O)N(CC)C2CCS(=O)(=O)C2)nnc1-c1ccccc1 (stereo unspecified)
  A = 4	B = -73	C = -1	D = 73*
SMILES: O=C(c1ccccc1O)N1N=C(C(F)(F)F)CC1(O)c1ccc([N+](=O)[O-])cc1 (stereo unspecified)
  A = -16	B = 71*	C = -21	D = -71
SMILES: CCC1=NN(C(=O)c2ccc([N+](=O)[O-])cc2)C(O)(c2ccccc2)C1 (stereo unspecified)
  A = -25	B = 82*	C = -2	D = -82
SMILES: CCC1=NN(C(=O)c2ccccc2O)C(O)(c2ccccc2)C1 (stereo unspecified)
  A = -32	B = 120*	C = .	D = -120
SMILES: CCC1=NN(C(=O)c2ccccc2Br)C(O)(c2ccc(Br)cc2)C1 (stereo unspecified)
  A = 5	B = -5	C = 1	D = 5
SMILES: C[C@H]1CC=CC[C@H](c2ccccc2)NC(=O)[C@@H](Cc2ccccc2)N(C)C(=O)c2ccccc2O1 (mixture of isomers)
  A = .	B = .	C = -29	D = .
SMILES: CO[C@@H]1CN(C)C(=O)c2cc(NC(=O)C3CCOCC3)ccc2OC[C@@H](C)N(S(=O)(=O)c2ccc(C)cc2)C[C@H]1C
  A = 2	B = .	C = .	D = .
SMILES: CO[C@@H]1CN(C)C(=O)c2cc(NS(=O)(=O)c3cccc(C)c3)ccc2OC[C@@H](C)NC[C@H]1C
  A = 28	B = .	C = 2	D = .
SMILES: CCn1c2ccccc2c2cc(NC(=O)c3cc(OC)c(OC)c(OC)c3)ccc21
  A = -6	B = 62	C = -6	D = -62
SMILES: CCn1c2ccccc2c2cc(NC(=O)c3cccc([N+](=O)[O-])c3)ccc21
  A = -15	B = 80*	C = -3	D = -80
SMILES: CCn1c2ccccc2c2cc(NC(=O)c3cc(OC)cc(OC)c3)ccc21
  A = .	B = 77*	C = -4	D = -77
SMILES: N#C/C(=C\Nc1ccccc1O)c1nc2ccccc2o1
  A = -22	B = 113*	C = -53	D = -113
SMILES: CN1CCN(c2ccc(CNC(=O)C3(C)Cc4c(-c5ccccc5)ccnc4O3)cc2)CC1 (stereo unspecified)
  A = -18	B = .	C = 45*	D = .
SMILES: CC1(C(=O)NCc2ccccc2)Cc2c(-c3ccccc3)ccnc2O1 (stereo unspecified)
  A = -4	B = .	C = -13	D = .
SMILES: Oc1ccccc1C1=NN(c2ccccc2)C(c2ccc(F)cc2)C1 (stereo unspecified)
  A = -5	B = 74*	C = 12	D = -74
SMILES: Oc1ccc(C2=NN(c3ccccc3)C(c3ccc(F)cc3)C2)cc1 (stereo unspecified)
  A = -13	B = 27	C = -8	D = -27
SMILES: COc1cc(/C=C/C(=O)c2ccc3c(c2)OCCO3)cc(OC)c1OC
  A = 10	B = 72*	C = -3	D = -72
SMILES: COc1cc(/C=C/C(=O)c2ccc3c(c2)OCO3)cc(OC)c1OC
  A = -6	B = 24	C = 19	D = -24
SMILES: CCCCCCCCN1C(=O)[C@@H](CC(=O)N2CCN(C(=O)C3CC3)CC2)C[C@@]2(C(=O)OC)C1=C[C@H](C1CCCC1)O[C@@H]2C
  A = .	B = .	C = 72*	D = .

A section from the list above, for reference:
Letters: A = Yeast UUG start; B = SR-BI DiI inh; C = GSIS activator; D = SR-BI uptake up
SMILES: Oc1ccc(C2=NN(c3ccccc3)C(c3ccc(F)cc3)C2)cc1 (stereo unspecified)
  A = -13	B = 27	C = -8	D = -27
SMILES: COc1cc(/C=C/C(=O)c2ccc3c(c2)OCCO3)cc(OC)c1OC
  A = 10	B = 72*	C = -3	D = -72
SMILES: COc1cc(/C=C/C(=O)c2ccc3c(c2)OCO3)cc(OC)c1OC
  A = -6	B = 24	C = 19	D = -24
SMILES: CCCCCCCCN1C(=O)[C@@H](CC(=O)N2CCN(C(=O)C3CC3)CC2)C[C@@]2(C(=O)OC)C1=C[C@H](C1CCCC1)O[C@@H]2C
  A = .	B = .	C = 72*	D = .

Continued.
Letters: A = Yeast UUG start; B = SR-BI DiI inh; C = GSIS activator; D = SR-BI uptake up
SMILES: CCCCCCCCN1C(=O)[C@@H](CC(=O)N2CCCC2)C[C@@]2(C(=O)OC)C1=C[C@H](C1CCCC1)O[C@@H]2C
  A = .	B = .	C = 112*	D = .
SMILES: COC(=O)[C@]12C[C@H](CC(=O)N3CCCC3)C(=O)N(CCC3=CCCCC3)C1=C[C@H](C(C)(C)C)O[C@@H]2C
  A = .	B = .	C = 294*	D = .
SMILES: COc1ccccc1CNC(=O)C[C@@H]1C[C@H]2c3cc(NS(=O)(=O)c4ccc(F)cc4)ccc3O[C@H]2[C@@H](CO)O1
  A = .	B = .	C = -9	D = .
SMILES: CC1CCN(c2nc(-c3ccncc3)nc3ccccc23)CC1
  A = -18	B = 80*	C = .	D = -80
SMILES: C[C@@H]1CN([C@H](C)CO)C(=O)c2cc(-c3cccc(C#N)c3)cnc2O[C@H]1CN(C)Cc1cccnc1
  A = .	B = .	C = 0	D = .
SMILES: COc1ccc(OC)c(NC(=O)C(=O)N/N=C/c2ccccc2[N+](=O)[O-])c1
  A = -24	B = 81*	C = .	D = -81
SMILES: COc1ccc(NC(=O)C(=O)N/N=C/c2cc(C)n(-c3cccc(Cl)c3Cl)c2C)c(OC)c1
  A = -11	B = 72*	C = .	D = -72
SMILES: CCC(C)N(C(=O)CSc1nnc(-c2ccco2)n1C)C1CCS(=O)(=O)C1 (stereo unspecified)
  A = .	B = -22	C = 23	D = 22
SMILES: CCC(C)N(C(=O)CSc1nncn1C)C1CCS(=O)(=O)C1 (stereo unspecified)
  A = -15	B = -7	C = 102*	D = 7
SMILES: CCC(=O)N[C@H]1CC[C@@H](CC(=O)OC)O[C@@H]1CO
  A = -2	B = .	C = -6	D = .
SMILES: COc1ccc(CN(C)C(=O)COc2cccc(-n3cnnn3)c2)cc1OC
  A = 2	B = -5	C = 41*	D = 5
SMILES: CCOc1ccc(CCNC(=O)COc2cccc(-n3cnnn3)c2)cc1OCC
  A = -15	B = 29	C = 44*	D = -29
SMILES: COc1ccccc1CNC(=O)COc1cccc(-n2cnnn2)c1
  A = .	B = 5	C = 5	D = -5
SMILES: CO[C@H]1CN(C)C(=O)c2cc(NS(C)(=O)=O)ccc2OC[C@@H](C)N(CC2CCOCC2)C[C@@H]1C
  A = -23	B = .	C = 10	D = .
SMILES: Cc1ccc(-n2nnc3ccccc3c2=O)cc1C
  A = -10	B = 13	C = .	D = -13
SMILES: O=c1c2ccccc2nnn1-c1ccccc1
  A = .	B = -356	C = 5	D = 356*
SMILES: O=c1c2ccccc2nnn1Cc1ccccc1
  A = .	B = .	C = 45*	D = .
SMILES: O=c1c2ccccc2nnn1CCc1ccccc1
  A = -35	B = .	C = 3	D = .
SMILES: O=C(C[C@@H]1CC[C@H]2[C@@H](COC[C@H](O)CN2Cc2cccc(C(F)(F)F)c2)O1)NCc1ccc(Cl)cc1
  A = .	B = .	C = -23	D = .
SMILES: CC(C)NC(=O)Nc1ccc2c(c1)C(=O)N(C)C[C@@H](C)[C@@H](CN(C)C)O2
  A = .	B = .	C = 10	D = .
SMILES: COc1ccc(/C=C2\Sc3ccc(C(=O)NCc4cccnc4)cc3N(C)C2=O)cc1OC
  A = -22	B = 74*	C = 2	D = -74
SMILES: COc1cccc(/C=C2\Sc3ccc(C(=O)NCc4cccnc4)cc3N(C)C2=O)c1
  A = .	B = .	C = 21	D = .
SMILES: Oc1ccc(C2Nc3cccc4cccc(c34)N2)c(O)c1
  A = .	B = 91*	C = .	D = -91
SMILES: C[C@@H]1CCCCO[C@H](CN(C)S(=O)(=O)c2cn(C)cn2)[C@@H](C)CN([C@@H](C)CO)C(=O)c2cc(NS(=O)(=O)c3ccccc3)ccc2O1
  A = 13	B = .	C = 4	D = .
SMILES: CC(C)OC(=O)Cn1cc(C#N)c2ccccc21
  A = .	B = -10	C = -9	D = 10
SMILES: COC(=O)Cn1cc(C#N)c2ccccc21
  A = -14	B = -15	C = 70*	D = 15
